Hits are enriched below; roughly 0.91% of the tested compounds scored in any of these assays.
FN deposition inh – inhibitors of fibronectin matrix deposition, primary screen, AH1F cells, Alexa488-fibronectin fluorescence, plate reader; hit rate 0.086% among 350,000; AH1F fibroblasts, overnight; inhibition, % at 12.6 µM;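 active = mean inhibition across replicates of 30% or more, regardless of how many single replicates reach that level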;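 also: positive control wells lacked labelled fibronectin entirely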
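Material: AH1F fibroblast monolayer depositing Alexa488-labelled fibronectin into matrix / Amount: 10000 AH1F cells per well / Signal: fluorescence 485/525 nm / Medium: DMEM, 2% serum / Compound: single dose, pinned / Incubation: 1 h cell adhesion before compound, then overnight fibronectin incubation / Reagent: Alexa488-FN, 24 nM final / Read-out: inhibition of fibronectin deposition signal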
Statin myotox sup – suppressors of statin myotoxicity in C2C12 myotubes, primary screen, cell-based, single point, plate reader. C2C12 myotubes + simvastatin, ATP luminescence, 48 h; scaled: DMSO 0, geranylgeraniol control 100. rescue of ATP level, % at 7.49 µM. hit rate 0.78% among 330,000;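 active = mean ATP rescue above about 67%, or every replicate alone reaching that limit, limit read from the data, passing the limit was not always enough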;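 also: myotubes were challenged with 10 µM simvastatin during compound exposure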
Yeast UUG start-1 – alters start codon recognition fidelity in yeast; S. cerevisiae UUG-firefly luciferase reporter, luminescence/redox ratio; activity score, % at 18.7 µM; actives 0.13% (n = 350,000); AID 602363;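 active = replicate mean at a twofold rise or more, about +100% in these data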;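 also: firefly luciferase made from a UUG start codon reports start codon fidelity; reporter light over untreated wells divided by growth signal over untreated wells; some hits fall short of that in this replicate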
PGC1a acetyl inh – inhibitors of PGC1a acetylation signal, primary screen, cell-based, U2OS, AlphaScreen, inhibitor mode; AID 651687, 2012; AlphaScreen anti-acetyl-lysine; with virally co-expressed GCN5 acetyltransferase; inhibition, % at 15.6 µM; hit rate 0.17% among 350,000;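 active = every replicate shows inhibition of at least 40%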;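 also: 0% = neutral control wells and 100% = positive control wells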
hiPSC survival – enhancers of single-cell hiPSC survival, primary screen, ATPlite luminescence; 100% = ROCK inhibitor wells, 0% = DMSO; survival enhancement, % at 20 µM; hit rate 0.044% among 360,000; AID 602274, 2012; in the data active = survival enhancement above about 18%;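 also: cells exposed to compounds for 16 hours before the ATP read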
Yeast UUG start-2 – enhancers of UUG start codon usage in yeast, dose response, S. cerevisiae, UUG firefly luciferase, cherry-pick, set 2; 540 tested, under 10 active; luminescence, 4 h; 100% means double the DMSO signal; activation, % at 38 µM; shares compounds with Yeast UUG start-1;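 active = signal increase whose fitted curve reaches an absolute level of 40 at a concentration under 10 µM; inactive = activity opposite to the expected increase, or the rest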
Active calls of the source: *; i = inactive; x = no result given.

1. CCN(CC)CCNC(=O)Cn1nc(Cc2cccnc2)c2ccccc2c1=O
2. Cn1nc(C(=O)NCc2ccccc2)c2ccccc2c1=O
3. O=C(NCC[C@H]1CC[C@H](NS(=O)(=O)c2cccc(F)c2)[C@H](CO)O1)C1CCCC1
4. Cc1ccc(S(=O)(=O)N[C@@H]2CC[C@H](CCNS(=O)(=O)Cc3ccccc3)O[C@@H]2CO)cc1
5. O=C(NCC[C@@H]1CC[C@H](NS(=O)(=O)c2cccc(F)c2)[C@H](CO)O1)C1CCCC1

Compound,1,2,3,4,5
FN deposition inh,10,5,-1,6,-12
Statin myotox sup,15,19,0,-3,-2
Yeast UUG start-1,-8,-12,0,2,145*
PGC1a acetyl inh,x,-5,8,6,4
hiPSC survival,0,-2,x,x,x
Yeast UUG start-2,x,x,x,x,i

6. Cc1ccc(S(=O)(=O)N[C@H]2CC[C@H](CCNS(=O)(=O)Cc3ccccc3)O[C@@H]2CO)cc1
7. O=C(Nc1ccccc1F)N[C@H]1CC[C@H](CCNS(=O)(=O)c2ccc(F)cc2)O[C@H]1CO
8. CNC(=O)C[C@@H]1CC[C@@H]2[C@H](COc3ccc(NC(=O)Nc4c(C)noc4C)cc3C(=O)N2C)O1
9. C[C@@H]1CN([C@@H](C)CO)C(=O)c2cccc(N(C)C)c2O[C@H]1CN(C)S(C)(=O)=O
10. COc1ccccc1-c1cn(CC[C@H]2CC[C@@H](NC(=O)C3CCOCC3)[C@@H](CO)O2)nn1

Compound,6,7,8,9,10
FN deposition inh,1,-3,-6,7,x
Statin myotox sup,-7,2,-6,-17,3
Yeast UUG start-1,148*,154*,-5,-8,1
PGC1a acetyl inh,-9,6,1,22,6
hiPSC survival,x,x,x,x,x
Yeast UUG start-2,i,i,x,x,x

11. C[C@@H]1CN([C@H](C)CO)S(=O)(=O)c2ccc(C#CCC3CCCC3)cc2O[C@@H]1CN(C)C(=O)CN(C)C
12. C[C@H](CO)N1C[C@H](C)[C@H](CN(C)C(=O)CN(C)C)Oc2cc(C#CCC3CCCC3)ccc2S1(=O)=O
13. Cc1noc(C)c1S(=O)(=O)N(C)C[C@@H]1Oc2ccc(NS(=O)(=O)c3ccc(Cl)cc3)cc2CC(=O)N([C@@H](C)CO)C[C@H]1C
14. COc1ccc(S(=O)(=O)N(C)C[C@H]2Oc3c(NC(=O)C4CCOCC4)cccc3C(=O)N([C@H](C)CO)C[C@@H]2C)cc1
15. COc1ccccc1S(=O)(=O)N[C@@H]1CC[C@@H](CC(=O)NCc2cccc(F)c2)O[C@@H]1CO

Compound,11,12,13,14,15
FN deposition inh,3,-5,x,0,5
Statin myotox sup,-45,3,0,-12,-2
Yeast UUG start-1,129*,107*,10,6,x
PGC1a acetyl inh,7,-6,2,0,10
hiPSC survival,x,x,x,x,x
Yeast UUG start-2,i,i,x,x,x

16. O=C(c1cccc(F)c1)N1CC[C@@H]2[C@H]1c1cc(C#Cc3ccc(F)cc3)ccc1N[C@@H]2CO
17. Cc1cc(OCCOCCNC(C)C)cc(C)c1Cl
18. Cc1cc(OCCCCNC(C)C)cc(C(C)C)c1
19. CCC(=O)Nc1ccc2c(c1)OC[C@H](C)N(C(=O)NC(C)C)C[C@H](C)[C@@H](OC)CN(C)C2=O
20. CO[C@@H]1CN(C)C(=O)c2ccc(NC(=O)c3nc4ccccc4s3)cc2OC[C@@H](C)N(Cc2ccncc2)C[C@@H]1C

Compound,16,17,18,19,20
FN deposition inh,12,x,2,13,7
Statin myotox sup,23,-11,4,x,2
Yeast UUG start-1,-16,-16,229*,x,-1
PGC1a acetyl inh,-9,6,-12,-2,0
hiPSC survival,x,-2,-1,x,x
Yeast UUG start-2,x,x,8,x,x

Some entries already given, limited to FN deposition inh, Statin myotox sup and PGC1a acetyl inh:
| nr | canonical_smiles | FN deposition inh | Statin myotox sup | PGC1a acetyl inh |
| --- | --- | --- | --- | --- |
| 18 | Cc1cc(OCCCCNC(C)C)cc(C(C)C)c1 | 2 | 4 | -12 |
| 19 | CCC(=O)Nc1ccc2c(c1)OC[C@H](C)N(C(=O)NC(C)C)C[C@H](C)[C@@H](OC)CN(C)C2=O | 13 | x | -2 |
| 20 | CO[C@@H]1CN(C)C(=O)c2ccc(NC(=O)c3nc4ccccc4s3)cc2OC[C@@H](C)N(Cc2ccncc2)C[C@@H]1C | 7 | 2 | 0 |

More results.
21. CCCC(=O)Nc1ccc2c(c1)C(=O)N(C)C[C@@H](OC)[C@H](C)CN(S(=O)(=O)c1cn(C)cn1)[C@@H](C)CO2
22. CO[C@@H]1CN(C)C(=O)c2ccc(NC(=O)Nc3c(C)noc3C)cc2OC[C@H](C)N(C)C[C@H]1C
23. CO[C@H]1CN(C)C(=O)c2ccc(NC(=O)c3nc4ccccc4s3)cc2OC[C@H](C)N(Cc2ccncc2)C[C@H]1C
24. CO[C@@H]1CN(C)C(=O)c2ccc(NC(=O)C3CCOCC3)cc2OC[C@@H](C)N(C(C)=O)C[C@H]1C
25. CO[C@@H]1CN(C)C(=O)c2ccc(NC(=O)Nc3c(C)noc3C)cc2OC[C@H](C)N(C)C[C@@H]1C

Compound,21,22,23,24,25
FN deposition inh,6,x,10,9,-5
Statin myotox sup,-2,-1,24,-12,-3
Yeast UUG start-1,134*,-12,173*,147*,69*
PGC1a acetyl inh,1,1,11,-1,7
hiPSC survival,x,x,x,x,x
Yeast UUG start-2,i,x,i,i,i

26. Cn1cnc(CCNC(=O)C[C@@H]2CC[C@H]3[C@@H](COC[C@H](O)CN3C(=O)Nc3ccc(Cl)cc3)O2)c1
27. COc1ccc(Nc2nc3ccccc3n2C)cc1
28. C[C@H]1CN([C@@H](C)CO)C(=O)c2cc(NC(=O)C3CC3)ccc2O[C@H]1CN(C)S(=O)(=O)c1cccs1
29. COCCn1c(SCC(=O)c2cc(C)n(C)c2C)nc2ccccc2c1=O
30. Cc1cc(-n2c(C)cc(C(=O)CSc3nnnn3-c3ccccc3)c2C)no1

Compound,26,27,28,29,30
FN deposition inh,-9,-11,x,2,x
Statin myotox sup,-8,-3,23,x,-8
Yeast UUG start-1,-5,0,25,x,-32
PGC1a acetyl inh,10,13,8,-9,-22
hiPSC survival,x,0,x,-1,1
Yeast UUG start-2,x,-13,x,-2,x

Ordered by value in PGC1a acetyl inh (lowest first): 3 of the compounds above
no. | SMILES | Yeast UUG start-1 | PGC1a acetyl inh | Yeast UUG start-2
29 | COCCn1c(SCC(=O)c2cc(C)n(C)c2C)nc2ccccc2c1=O | x | -9 | -2
28 | C[C@H]1CN([C@@H](C)CO)C(=O)c2cc(NC(=O)C3CC3)ccc2O[C@H]1CN(C)S(=O)(=O)c1cccs1 | 25 | 8 | x
26 | Cn1cnc(CCNC(=O)C[C@@H]2CC[C@H]3[C@@H](COC[C@H](O)CN3C(=O)Nc3ccc(Cl)cc3)O2)c1 | -5 | 10 | x

More structures:
31. CCOC(=O)CSc1nc2ccccc2c(=O)n1Cc1ccco1
32. O=C(CSc1nc2ccccc2c(=O)n1Cc1ccco1)c1ccccc1
33. COCCn1c(SCC(=O)NC(=O)Cc2ccccc2)nc2ccccc2c1=O
34. Cc1cc(-n2c(C)cc(C(=O)CSc3nc4ccccc4c(=O)n3Cc3ccco3)c2C)no1
35. C[C@@H]1CN([C@H](C)CO)C(=O)c2cc(NC(=O)CCN3CCOCC3)ccc2O[C@@H]1CN(C)C(=O)Nc1ccccc1

Compound,31,32,33,34,35
FN deposition inh,x,-6,1,-5,x
Statin myotox sup,5,27,7,11,-1
Yeast UUG start-1,4,-17,-14,685*,-3
PGC1a acetyl inh,x,-8,-6,-15,0
hiPSC survival,-4,-1,0,-1,x
Yeast UUG start-2,x,2,x,1,x

36. COc1ccc2c3c(n(C)c2c1)[C@H](CO)N(C(=O)Nc1ccc(F)cc1)CC31CN(C(=O)CN2CCOCC2)C1
37. O=C1COc2ccccc2N1Cc1ccc(Cl)cc1
38. CCOc1ccccc1Nc1nc2ccccc2n1C(C)C
39. C#CCOCCOCCOCCNc1nc(N2CCN(C(=O)[C@H](CC(N)=O)n3cc(C(N)[C@@H](C)CC)nn3)CC2)nc(N2CCN(C(=O)[C@H](CCCCN)n3cc([C@@H](N)CC(N)=O)nn3)CC2)n1 (stereo partly specified)
40. C#CCOCCOCCOCCNc1nc(N2CCN(C(=O)[C@H](CC(N)=O)n3cc(C(N)[C@H](C)CC)nn3)CC2)nc(N2CCN(C(=O)[C@H](CC(N)=O)n3cc(C(N)[C@@H](C)CC)nn3)CC2)n1 (stereo partly specified)

Compound,36,37,38,39,40
FN deposition inh,-7,6,1,10,-10
Statin myotox sup,x,28,-17,7,2
Yeast UUG start-1,x,167*,-4,8,108*
PGC1a acetyl inh,4,0,x,x,2
hiPSC survival,x,-1,-1,2,-1
Yeast UUG start-2,x,4,4,x,-1

Screening data deposited in PubChem BioAssay by several laboratories.
